Measurements taken from patent US12485122B2, “Combination of palbociclib and adagrasib for lung cancer” (Mirati Therapeutics, Inc., priority 2018, dated 2025).

Test system: SW1573 cells
Assay: SW1573 tumor bearing mice, single agents and combination
Type: in vivo, nude/nude mice
Details: Study Day 11, p.o. daily, Compound 478 100 mg/kg, palbociclib 130 mg/kg, 7 mice averaged
Experimental: Immunocompromised nude/nude mice were inoculated in the right hind flank with cells or patient derived tumor samples harboring a KRas G12C mutation. When tumor volumes reached between 200-400 mm^3 in size, the mice were divided into four groups of 5-12 mice each. The first group was administered vehicle only. […] The fourth group was administered the single agent dose of the KRas G12C inhibitor in combination with the single agent dose of the CDK 4/6 inhibitor. […] Tumor volumes were measured using a caliper every two-three days and tumor volumes are calculated by the formula: […].
For example, 28 nude/nude mice were inoculated in the right hind limb with 5×10^6 SW1573 cells.

With `C=C(F)C(=O)N1CCN(c2nc(OC[C@@H]3CCCN3C)nc3c2CCN(c2cccc4cccc(Cl)c24)C3)C[C@@H]1CC#N` [Compound 478] the “Average Tumor Volume” value was 444 mm^3.
